This note sets out measurements from ChEMBL document CHEMBL5512679, “In Silico Assisted Identification, Synthesis, and In Vitro Pharmacological Characterization of Potent and Selective Blockers of the Epilepsy-Associated KCNT1 Channel” (J Med Chem, 2024).

The chains behind the UniProt entries cited, without tags or fusion partners.
UniProt O43526, whole entry: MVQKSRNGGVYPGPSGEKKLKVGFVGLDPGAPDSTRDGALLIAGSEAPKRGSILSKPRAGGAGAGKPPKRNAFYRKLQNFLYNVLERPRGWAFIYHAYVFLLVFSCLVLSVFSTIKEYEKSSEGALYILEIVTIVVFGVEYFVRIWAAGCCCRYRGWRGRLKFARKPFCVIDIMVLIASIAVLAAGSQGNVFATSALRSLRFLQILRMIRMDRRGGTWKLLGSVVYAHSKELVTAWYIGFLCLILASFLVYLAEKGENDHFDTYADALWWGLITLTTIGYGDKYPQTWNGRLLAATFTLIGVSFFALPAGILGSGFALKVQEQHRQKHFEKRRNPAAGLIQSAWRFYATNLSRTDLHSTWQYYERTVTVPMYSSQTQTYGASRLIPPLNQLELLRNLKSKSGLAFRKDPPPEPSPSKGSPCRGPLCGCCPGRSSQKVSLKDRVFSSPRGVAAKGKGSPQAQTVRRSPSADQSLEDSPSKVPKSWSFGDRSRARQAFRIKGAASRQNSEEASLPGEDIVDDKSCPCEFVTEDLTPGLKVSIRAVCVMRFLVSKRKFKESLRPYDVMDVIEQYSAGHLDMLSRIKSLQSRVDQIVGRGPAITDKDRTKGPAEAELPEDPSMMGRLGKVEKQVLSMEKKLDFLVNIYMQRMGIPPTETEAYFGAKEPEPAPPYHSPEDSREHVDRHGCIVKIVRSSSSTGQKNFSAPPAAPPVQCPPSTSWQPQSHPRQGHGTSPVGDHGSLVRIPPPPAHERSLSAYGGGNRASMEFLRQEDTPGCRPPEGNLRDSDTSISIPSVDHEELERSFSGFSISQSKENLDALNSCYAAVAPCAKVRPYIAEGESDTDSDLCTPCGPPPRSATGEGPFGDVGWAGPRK

Active and inactive are the calls of the source. No cut-off for these calls is given here.

The target in assay [1] is Potassium voltage-gated channel subfamily KQT member 2 (Homo sapiens) (UniProt O43526). Kind of assay: Activation of human Kv7.2 transiently transfected in CHO cells at 10 uM under -100 mV holding potential by whole-cell patch clamp electrophysiology method. It is filed as cell-based. Background: The patch-clamp technique gives a direct electrical read-out from membranes.

For assay [2] the target is unchanged. Put plainly: Inhibition of human Kv7.2 transiently transfected in CHO cells at 10 uM at -100 mV holding potential by whole-cell patch clamp electrophysiology method. It is filed as cell-based.

The molecule `O=S(=O)(Nc1ccc2c(c1)CCN2Cc1ccc(C(F)(F)F)cc1C(F)(F)F)C1CCCCC1` registered an Activity in assay [1] of 10%.

With `O=C(NCc1ccccc1)[C@H](Cc1c[nH]c2ccccc12)NCc1ccc(Oc2ccccc2)cc1`, the inhibition result in assay [2] is “Active”. Same read-out and setting: under `CCOC(=O)[C@@H]1CS[C@@]2(C(=O)Nc3ccc(Br)cc32)N1C(=O)c1ccc(Cl)cc1` stands “Active”.
